Measured values published in patent publication US4925943A, “2-(2-aminobenzyl or 2-nitrobenzyl)-1,2,3,4-tetrahydroisoquinoline derivatives” (priority 1986, dated 1990).

Target: T1, α1 adrenergic receptors of isolated rat deferent canal (Rattus norvegicus, UniProt P43140)
T1 construct: The deferent canals of 12-week old male Wistar rats are removed; from tissue; host or cells: isolated vas deferens (deferent canal) of male Wistar rats
T1 sequence (P43140 1-466): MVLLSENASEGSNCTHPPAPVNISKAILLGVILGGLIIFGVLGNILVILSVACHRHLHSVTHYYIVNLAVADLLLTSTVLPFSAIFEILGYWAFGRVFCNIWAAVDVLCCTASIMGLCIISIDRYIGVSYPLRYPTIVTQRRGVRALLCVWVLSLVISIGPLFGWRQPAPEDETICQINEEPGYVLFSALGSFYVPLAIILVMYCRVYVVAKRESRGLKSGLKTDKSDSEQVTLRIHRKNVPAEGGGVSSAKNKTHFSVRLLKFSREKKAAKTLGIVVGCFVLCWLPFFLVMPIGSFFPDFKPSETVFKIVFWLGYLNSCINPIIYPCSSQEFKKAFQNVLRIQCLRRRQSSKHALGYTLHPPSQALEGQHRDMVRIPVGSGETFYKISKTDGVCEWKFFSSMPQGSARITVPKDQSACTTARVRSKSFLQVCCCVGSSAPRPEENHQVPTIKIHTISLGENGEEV
Assay: antagonism with phenylephrine induced contraction of rat deferent canal
Parameters: species or system rat (male Wistar)

Question: Which Kb does the source give for `COC(=O)[C@@H]1[C@H]2C[C@H]3c4[nH]c5ccccc5c4CCN3C[C@@H]2CC[C@@H]1O` [Yohimbine] here?
Answer: Its Kb is 832 nM.
